The values that follow come from article PMC8128076 (RSC Medicinal Chemistry, 2021).

In this test the target is mTOR (Homo sapiens, UniProt P42345). Nature of the test: LanthaScreen TR-FRET displacement binding assay, mTOR. To be noted: mTOR over PI3Kα.

Structures are written as SMILES.

As for `C[C@@H]1COCCN1c1nc(-c2cnc(N)cc2C(F)F)nc2c1C[C@@H]1COCCN21` [Compound 7], the “SI (selectivity index), Ki(PI3Kα)/Ki(mTOR)” value is on record as less than 20.
Turning to `C[C@@H]1COCCN1c1nc(-c2cnc(N)c(C(F)(F)F)c2)nc2c1C[C@@H]1COCCN21` [Compound 11], the “SI (selectivity index), Ki(PI3Kα)/Ki(mTOR)” value is on record as more than 600.
